# In US11414436B2, “Non-coordinating anion type activators containing cation having large alkyl groups” (ExxonMobil Chemical Patents Inc., priority 2018, dated 2022):
# Columns and labels:
# [1] = Solubility studies of the activators (saturated solution in isohexane or methylcyclohexane); assay type: physicochemical; conditions: methylcyclohexane
# [2] = as above; assay type: physicochemical; conditions: for Solubility limit in i-hexane (mM at 25° C.) / Solubility limit in i-hexane (wt % at 25° C.): isohexane; for Solubility limit in MeCy (mM at 25° C.): methylcyclohexane
# Procedure: Solubility Studies of the Activators
# Procedure for Solid Activators.
# A saturated solution of each of the solid ammonium borate activators was prepared by stirring an excess of the activator with either isohexane or methylcyclohexane solvent for several hours at 25° C. The mixture was then filtered and a known volume of the filtrate was evaporated to dryness in a tared vial. The vial was then weighed to determine the mass of activator that was dissolved in the aliquot. The concentration of the saturated solution is presented in millimoles of activator per liter of solution (mM).
# Procedure for Activators that Form Emulsions.
# A saturated solution of the activator was prepared by slowly adding the solvent to a pre-weighed amount of the activator. The final volume was determined as the minimum amount of solvent required to convert the emulsion into a homogeneous solution. The concentration of the saturated solution is presented in millimoles of activator per liter of solution (mM). Alternatively, an emulsion of the activator was prepared by adding the solvent to an excess amount of activator. The resulting emulsion was separated from the undissolved solids by decanting the emulsion into a tared vial. Solvent was then added dropwise until the emulsion became homogeneous. The mass of the final solution was measured and then the solvent was evaporated to dryness to obtain the mass of the activator. The concentration of the saturated solution is presented in millimoles of activator per liter of solution (mM).
Substance,Solubility limit in MeCy (wt % at 25° C.) [1] [wt %],Solubility limit in i-hexane (mM at 25° C.) [2] [mM],Solubility limit in i-hexane (wt % at 25° C.) [2] [wt %],Solubility limit in MeCy (mM at 25° C.) [2] [mM]
Di(hydrogenated tallow)methylamine-BF20 [M2HTH-BF20],31,9.6,1.7,200
Di(hydrogenated tallow)methylamine-BF28 [M2HTH-BF28],25,6.5,1.5,120
"N,N-Dimethylanilinium tetrakis(pentafluorophenyl)borate [DMAH-BF20, reference compound]",<0.1,<0.1,<0.1,<0.1
"N,N-dimethylanilinium tetrakis(heptafluoronaphthalen-2-yl)borate [DMAH-BF28, reference compound]",<0.1,<0.1,<0.1,<0.1
N-methyl-4-nonadecyl-N-octadecylanilinium tetrakis(perfluoronaphthalen-2-yl)borate [NOMAH-BF28],>49,>213,>52,>227
